Test results: ChEMBL document CHEMBL1145166, “Dipeptides as effective prodrugs of the unnatural amino acid (+)-2-aminobicyclo[3.1.0]hexane-2,6-dicarboxylic acid (LY354740), a selective group II metabotropic glutamate receptor agonist” (J Med Chem, 2005)

Protein sequences, listed by entry. Tags and fused reporters are not part of them. Lines headed by an entry give the natural chain unless they say otherwise; changes in a name come on top.
UniProt P31421: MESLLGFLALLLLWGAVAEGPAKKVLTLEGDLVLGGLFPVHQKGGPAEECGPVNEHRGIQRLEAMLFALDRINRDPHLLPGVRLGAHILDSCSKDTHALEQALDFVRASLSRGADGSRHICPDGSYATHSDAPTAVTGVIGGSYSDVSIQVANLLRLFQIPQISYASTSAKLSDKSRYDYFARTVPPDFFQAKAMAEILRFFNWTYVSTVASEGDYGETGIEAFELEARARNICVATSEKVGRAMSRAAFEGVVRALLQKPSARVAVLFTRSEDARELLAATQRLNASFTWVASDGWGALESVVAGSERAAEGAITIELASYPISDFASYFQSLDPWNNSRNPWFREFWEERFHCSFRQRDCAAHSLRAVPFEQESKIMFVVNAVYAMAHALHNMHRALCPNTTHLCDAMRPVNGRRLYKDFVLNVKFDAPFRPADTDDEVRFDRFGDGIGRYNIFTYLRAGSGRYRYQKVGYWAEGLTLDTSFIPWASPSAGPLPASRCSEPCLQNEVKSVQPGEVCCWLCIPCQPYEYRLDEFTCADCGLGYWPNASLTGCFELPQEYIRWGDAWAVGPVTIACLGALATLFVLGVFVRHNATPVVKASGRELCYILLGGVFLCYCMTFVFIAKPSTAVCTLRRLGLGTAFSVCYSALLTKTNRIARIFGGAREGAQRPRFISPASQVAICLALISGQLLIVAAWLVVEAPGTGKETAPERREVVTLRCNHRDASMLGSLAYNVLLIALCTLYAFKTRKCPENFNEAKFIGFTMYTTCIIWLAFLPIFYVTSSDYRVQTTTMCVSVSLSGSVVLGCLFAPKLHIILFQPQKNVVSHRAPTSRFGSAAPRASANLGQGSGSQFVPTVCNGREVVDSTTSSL

Target: Metabotropic glutamate receptor 2 (Rattus norvegicus, UniProt P31421)
Test: Inhibition of [3H]LY-341,495 binding to mGlu2 receptors of rat brain
How it was run: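 Rat forebrain membranes (cortex, hippocampus, striatum; adult male Sprague-Dawley). Washed tissue (0.015–0.020 mg protein) incubated with 1 nM [³H]LY341495 and test compound up to 10 000 nM, in 10 mM potassium phosphate pH 7.6 + 100 mM KBr. Incubation on ice 30–45 min, then rapid filtration and scintillation counting. Nonspecific binding defined with 1 mM L-glutamate. Ki derived, N = 3.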

pKi: 7.10
Structure (SMILES): N[C@@]1(C(=O)O)CC[C@H]2[C@H](C(=O)O)[C@H]21 [EGLUMETAD]

pKi: −log10 of the molar value.
